Patent KR20120084755A

Amino acid sequences for entries named in this document (tags omitted). Residues count along the entry.
UniProt P03420, 26-574: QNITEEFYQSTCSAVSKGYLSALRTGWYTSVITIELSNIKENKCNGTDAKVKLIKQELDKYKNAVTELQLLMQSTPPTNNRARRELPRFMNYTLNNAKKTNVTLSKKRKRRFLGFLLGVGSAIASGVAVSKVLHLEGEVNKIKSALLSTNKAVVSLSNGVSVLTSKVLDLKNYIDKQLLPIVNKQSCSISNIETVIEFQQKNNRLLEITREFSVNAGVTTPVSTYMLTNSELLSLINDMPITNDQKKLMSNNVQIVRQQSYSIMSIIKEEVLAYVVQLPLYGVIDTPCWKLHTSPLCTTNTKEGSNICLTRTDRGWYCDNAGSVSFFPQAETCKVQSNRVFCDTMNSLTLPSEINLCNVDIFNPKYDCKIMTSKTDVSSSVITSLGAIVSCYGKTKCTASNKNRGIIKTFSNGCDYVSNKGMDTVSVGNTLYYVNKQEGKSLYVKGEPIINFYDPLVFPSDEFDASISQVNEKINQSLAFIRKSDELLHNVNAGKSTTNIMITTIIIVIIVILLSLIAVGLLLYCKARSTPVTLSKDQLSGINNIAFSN

Molecular target: RSV A2 바이러스의 F 단백질 (Respiratory Syncytial Virus (RSV), strain A2) (UniProt P03420)
Test: cell-based or functional assay

## AM14 (antibody)
  IC50, RSV A2 neutralisation on HEp2 cells (standard TCID50 culture assay): 2.09 ng/㎖
